Results as given in publication PMC5773950 (British Journal of Pharmacology, 2018).

Protein sequences, listed by entry. Tags and fused reporters are not part of them.
UniProt P23975, whole entry: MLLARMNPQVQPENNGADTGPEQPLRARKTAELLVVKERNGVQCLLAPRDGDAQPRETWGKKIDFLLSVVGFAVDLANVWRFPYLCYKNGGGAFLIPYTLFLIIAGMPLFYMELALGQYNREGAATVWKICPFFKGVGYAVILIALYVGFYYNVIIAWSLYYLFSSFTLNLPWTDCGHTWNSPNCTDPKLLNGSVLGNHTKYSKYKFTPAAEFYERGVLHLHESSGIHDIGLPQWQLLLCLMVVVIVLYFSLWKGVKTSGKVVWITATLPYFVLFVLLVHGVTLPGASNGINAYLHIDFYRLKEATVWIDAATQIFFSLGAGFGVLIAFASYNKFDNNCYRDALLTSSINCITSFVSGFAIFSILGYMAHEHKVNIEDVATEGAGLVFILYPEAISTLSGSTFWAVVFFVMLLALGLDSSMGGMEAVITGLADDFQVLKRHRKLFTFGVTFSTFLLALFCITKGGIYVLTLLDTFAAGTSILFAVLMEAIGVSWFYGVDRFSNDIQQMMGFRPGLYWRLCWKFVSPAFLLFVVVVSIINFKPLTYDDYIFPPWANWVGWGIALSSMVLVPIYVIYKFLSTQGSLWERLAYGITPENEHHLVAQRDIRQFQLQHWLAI
UniProt Q01959, whole entry: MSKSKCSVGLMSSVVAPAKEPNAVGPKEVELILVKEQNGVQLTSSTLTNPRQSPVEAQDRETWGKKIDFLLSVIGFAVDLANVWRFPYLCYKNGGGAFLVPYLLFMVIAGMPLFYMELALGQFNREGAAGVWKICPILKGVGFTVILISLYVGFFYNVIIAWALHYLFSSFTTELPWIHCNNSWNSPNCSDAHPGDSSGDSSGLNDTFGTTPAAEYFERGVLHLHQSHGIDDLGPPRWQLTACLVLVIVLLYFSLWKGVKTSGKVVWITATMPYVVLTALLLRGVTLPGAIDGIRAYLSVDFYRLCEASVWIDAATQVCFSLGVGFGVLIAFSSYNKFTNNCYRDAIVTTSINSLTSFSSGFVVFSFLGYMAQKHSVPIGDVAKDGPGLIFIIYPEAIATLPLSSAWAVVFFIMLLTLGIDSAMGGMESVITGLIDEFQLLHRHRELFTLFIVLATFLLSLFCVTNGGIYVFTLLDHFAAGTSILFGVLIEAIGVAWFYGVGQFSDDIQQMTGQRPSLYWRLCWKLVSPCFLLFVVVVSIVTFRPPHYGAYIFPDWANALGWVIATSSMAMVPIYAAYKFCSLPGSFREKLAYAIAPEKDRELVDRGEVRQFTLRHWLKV
UniProt P31645, whole entry: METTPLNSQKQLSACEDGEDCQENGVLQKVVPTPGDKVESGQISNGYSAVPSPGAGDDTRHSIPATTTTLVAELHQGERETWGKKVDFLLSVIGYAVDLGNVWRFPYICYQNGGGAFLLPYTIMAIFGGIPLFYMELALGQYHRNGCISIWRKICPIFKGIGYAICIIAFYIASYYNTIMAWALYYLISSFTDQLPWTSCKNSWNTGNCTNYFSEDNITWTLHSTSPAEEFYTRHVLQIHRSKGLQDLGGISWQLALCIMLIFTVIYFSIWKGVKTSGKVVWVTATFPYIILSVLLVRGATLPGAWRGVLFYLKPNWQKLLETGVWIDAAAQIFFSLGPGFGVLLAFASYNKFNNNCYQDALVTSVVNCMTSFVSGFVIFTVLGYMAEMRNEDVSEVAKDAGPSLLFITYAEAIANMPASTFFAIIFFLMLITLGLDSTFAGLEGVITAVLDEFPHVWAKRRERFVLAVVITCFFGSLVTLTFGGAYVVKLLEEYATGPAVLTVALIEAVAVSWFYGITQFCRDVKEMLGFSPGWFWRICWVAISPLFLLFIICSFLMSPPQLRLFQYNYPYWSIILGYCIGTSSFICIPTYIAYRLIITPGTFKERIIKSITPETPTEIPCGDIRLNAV
UniProt P08908, whole entry: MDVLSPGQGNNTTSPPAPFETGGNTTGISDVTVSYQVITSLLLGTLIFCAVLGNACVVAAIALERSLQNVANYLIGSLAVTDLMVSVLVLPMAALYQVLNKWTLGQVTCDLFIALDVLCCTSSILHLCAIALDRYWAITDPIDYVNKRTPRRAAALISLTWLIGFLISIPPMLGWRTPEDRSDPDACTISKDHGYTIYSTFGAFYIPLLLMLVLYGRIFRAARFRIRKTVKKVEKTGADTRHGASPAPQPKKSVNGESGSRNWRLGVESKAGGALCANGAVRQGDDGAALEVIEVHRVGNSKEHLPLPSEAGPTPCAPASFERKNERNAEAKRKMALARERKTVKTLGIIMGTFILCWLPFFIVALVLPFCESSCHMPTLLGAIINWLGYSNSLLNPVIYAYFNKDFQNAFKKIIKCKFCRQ
UniProt P28223, whole entry: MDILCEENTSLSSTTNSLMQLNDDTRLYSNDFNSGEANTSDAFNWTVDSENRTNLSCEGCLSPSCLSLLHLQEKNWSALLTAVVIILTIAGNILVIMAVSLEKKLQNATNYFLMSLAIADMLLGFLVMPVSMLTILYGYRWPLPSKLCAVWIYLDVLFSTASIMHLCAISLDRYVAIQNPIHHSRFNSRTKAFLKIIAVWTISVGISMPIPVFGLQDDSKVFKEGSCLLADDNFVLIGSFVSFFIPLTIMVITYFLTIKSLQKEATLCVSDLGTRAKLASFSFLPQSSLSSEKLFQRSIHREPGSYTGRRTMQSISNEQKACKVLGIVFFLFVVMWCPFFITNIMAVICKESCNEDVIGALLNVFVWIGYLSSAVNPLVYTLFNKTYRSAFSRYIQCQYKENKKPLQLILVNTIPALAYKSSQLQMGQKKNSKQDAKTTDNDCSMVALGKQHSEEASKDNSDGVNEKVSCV

Experiments:
[1] = molecular target: human NET (Homo sapiens, UniProt P23975); type: cell-based; conditions: read-out: NET IC50 (95% CI)
[2] = molecular target: human DAT (Homo sapiens, UniProt Q01959); type: cell-based; conditions: read-out: DAT IC50 (95% CI)
[3] = molecular target: human SERT (Homo sapiens, UniProt P31645); type: cell-based; conditions: read-out: SERT IC50 (95% CI)
[4] = molecular target: 5‐HT1A receptor (Homo sapiens, UniProt P08908); conditions: read-out: 5‐HT1A Receptor binding Ki ± SD
[5] = molecular target: 5‐HT2A receptor (Homo sapiens, UniProt P28223); conditions: read-out: 5‐HT2A Receptor binding Ki ± SD

Buprenorphine
pIC50 [1]: < 4.00
pIC50 [2]: < 4.00
pIC50 [3]: < 4.00
pKi [4]: < 4.77
pKi [5]: < 4.89

pIC50, pKi: −log10 of the molar value.
